Target: Dual specificity protein kinase CLK1 (Homo sapiens, UniProt P49759)

Chains of the proteins cited; added tags and fusions are not shown. Lines headed by an entry give the natural chain unless they say otherwise; changes in a name come on top.
UniProt P49759: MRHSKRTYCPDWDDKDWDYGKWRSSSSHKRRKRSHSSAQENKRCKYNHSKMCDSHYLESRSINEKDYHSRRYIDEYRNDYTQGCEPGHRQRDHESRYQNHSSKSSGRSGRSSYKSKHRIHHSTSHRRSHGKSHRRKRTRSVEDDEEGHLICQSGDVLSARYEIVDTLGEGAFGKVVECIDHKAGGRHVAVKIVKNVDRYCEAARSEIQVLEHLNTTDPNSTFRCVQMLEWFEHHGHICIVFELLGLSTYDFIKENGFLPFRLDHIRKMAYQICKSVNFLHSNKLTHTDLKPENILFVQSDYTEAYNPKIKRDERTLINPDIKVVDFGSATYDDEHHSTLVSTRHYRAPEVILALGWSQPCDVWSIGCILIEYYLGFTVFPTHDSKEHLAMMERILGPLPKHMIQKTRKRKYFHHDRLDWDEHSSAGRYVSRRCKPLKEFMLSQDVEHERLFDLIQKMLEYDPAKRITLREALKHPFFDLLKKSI

IC50: 71 nM
SMILES: O=C1NC(Nc2ccccc2)=N/C1=C\c1ccc2c(c1)OCO2
